Laboratory results from patent publication US7638486B2, “Method for promoting hard tissue formation” (Acologix, Inc., priority 2005, dated 2009).

Columns and labels:
dorsal muscle of mice = assay: Ectopic bone formation in mouse dorsal muscle with implanted polymer; type: in vivo, ICR mice
Source text: It has been known that BMP causes bone formation when administered or implanted in mammals when given. The activity can be enhanced when given in the appropriate delivery vehicle. […] With lower, suboptimal doses of rhBMP-2, the there is minimal or no bone formation.
Materials and Methods: Polymer pellets containing both BMP-2 and the peptide of SEQ ID No. 8 in the following amounts (see table below) were implanted in the dorsal subfascia of 4 week old ICR mice. The mice were sacrificed 3 weeks later and the newly formed bones were isolated for evaluation using soft X-ray radiograph and bone mineral density determination.

[1] = tested on: MC3T3-E1 subclone 4 cells; assay: BMP-2 stimulated PGE2 production by MC3T3 cells (ELISA); type: cell-based, mouse; details: suboptimal concentration of rhBMP-2 alone
Method: Methods: MC3T3-E1 subclone 4 cells are neonatal mouse derived calvarial preosteoblasts with fibroblast morphology. […] For this experiment the MC3T3 cells were plated 10^5 cells per well in 24 well plates in growth medium (alpha MEM+1 mM sodium pyruvate+10% fetal bovine serum (FBS)). After 24 hours of culture the media was removed and replaced with assay media (alphaMEM+1 mM sodium pyruvate+2% FBS) containing the test substances. Each test group utilized 4 wells. After incubation for a further 24 hours the media was removed and the levels of PGE2 were determined using an ELISA (R&D Systems).

B1: BMP-2: recombinant human bone morphogenic protein-2 (rhBMP-2) (protein, UniProt P12643 283-396, looked up)
Bone morphogenetic protein 2: QAKHKQRKRLKSSCKRHPLYVDFSDVGWNDWIVAPPGYHAFYCHGECPFPLADHLNSTNHAIVQTLVNSVNSKIPKACCVPTELSAISMLYLDENEKVVLKNYQDMVVEGCGCR
Dorsal muscle of mice; 3 μg rhBMP-2 (suboptimal dose)
  Bone formation compared to a 5 μg dose: substantially less bone formation
Dorsal muscle of mice; 5 μg or higher amount of rhBMP-2 in PLA/PEG/DX polymer, mouse dorsal muscle
  Time until new bone tissue was locally formed: about 20 days
[1]
  COX-2 or PGE2 upregulation by rhBMP-2 alone: marginally upregulated
